Results reported in PMC4293355.

Biological target: TMR-SpWsp1(VCA) (fission yeast) (UniProt O36027)
Test: fluorescence polarisation

How did the apparent Kd with near saturating (20 uM) SpPRF turn out when “G-actin (from UniProt P68135 1-377) (natural protein)” was run?
The apparent Kd with near saturating (20 uM) SpPRF was 105 nM.
